In article PMC2793091 (Biochemistry, 2009):
Values joined by “and” are separate entries in the source; they are usually repeats but may differ in a detail not shown here. Equal values may be shown once. Read-outs that look alike come from different tables or passages of the source.

Experiments:
Format in all cases: binding
[1] = target: T1, hVAChT (Homo sapiens, UniProt Q16572); conditions: pH 5.0-6.9
T1 sequence (Q16572 1-532): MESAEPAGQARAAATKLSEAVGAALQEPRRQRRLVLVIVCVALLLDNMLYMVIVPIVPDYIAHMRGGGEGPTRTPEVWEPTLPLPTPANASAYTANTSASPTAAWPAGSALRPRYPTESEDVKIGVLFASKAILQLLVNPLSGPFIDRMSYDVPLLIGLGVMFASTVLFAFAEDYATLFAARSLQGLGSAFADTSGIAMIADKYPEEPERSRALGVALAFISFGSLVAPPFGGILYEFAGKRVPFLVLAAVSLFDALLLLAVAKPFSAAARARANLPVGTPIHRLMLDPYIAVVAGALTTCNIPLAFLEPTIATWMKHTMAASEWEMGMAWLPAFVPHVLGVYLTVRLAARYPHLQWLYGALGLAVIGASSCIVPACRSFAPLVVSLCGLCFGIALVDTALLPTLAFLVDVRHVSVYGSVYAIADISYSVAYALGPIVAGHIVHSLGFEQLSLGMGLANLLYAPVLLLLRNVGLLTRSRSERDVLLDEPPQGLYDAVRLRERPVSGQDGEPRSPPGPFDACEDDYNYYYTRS

[2] = target: T1, hVAChT
[3] = target: T1, hVAChT; experiment: Saturation curves for [3H]vesamicol at alkaline pH values; conditions: read-out: KdvespH
[4] = target: T1, hVAChT; experiment: Time-dependent dissociation of bound [3H]vesamicol after excess
[5] = target: T1, hVAChT; experiment: Stability of hVAChT at high pH, pH cycling of bound [3H]vesamicol; conditions: pH 7.4, 4 nM [3H]vesamicol

Substance: (−)-[^3H]trans-2-(4-phenylpiperidino)cyclohexanol [[^3H]vesamicol]
- pK1 (weak acid that must dissociate to bind [3H]vesamicol) ([1]; competitive model): 6.63 ± 0.06
- Bmax [1]: 23.6 ± 0.43 pmol/mg
- Kd ([1]; read-out: apparent dissociation constant (Kves), competitive model): 0.0101 ± 0.00115 µM
- pKAves (Site A in [3H]vesamicol-bound hVAChT) ([2]; Model (iii)): 7.9 ± 0.3
- α (factor by which KA changes when [3H]vesamicol is bound) ([2]; Model (iii)): 0.45 ± 0.11
- pK1 (proton at Site 1 of hVAChT, must dissociate for [3H]vesamicol binding) ([2]; Model (iii), averaged from five pH-binding profiles, 5 nM [3H]vesamicol): 6.5 ± 0.1
- decrease of affinity on deprotonation of Site A ([2]; protonated [3H]vesamicol): 2.2 ± 0.5 fold and ~ 2 fold
- increase of affinity on deprotonation of Site B ([2]; protonated [3H]vesamicol): 18 ± 4 fold and ~ 18 fold
- Kd ([3]; pH 7.1, protonated form): 0.0125 ± 0.0016 µM
- Kd ([3]; pH 8.0, protonated form): 0.0109 ± 0.0014 µM
- Kd ([3]; pH 8.9, protonated form): 0.0091 ± 0.0011 µM
- fraction of the dissociation that is fast ([4]; all alkaline pH values): 73 – 80%
- change of the faster and slower rate constants ([4]; from pH 7.3 to pH 9.5): increase by a factor of four
- Fractfast ([4]; pH 7.3): 0.75 ± 0.08
- kfast ([4]; pH 7.3): 0.54 ± 0.08 min⁻¹
- kslow ([4]; pH 7.3): 0.08 ± 0.03 min⁻¹
- Fractfast ([4]; pH 8.5): 0.80 ± 0.04
- kfast ([4]; pH 8.5): 1.42 ± 0.13 min⁻¹
- kslow ([4]; pH 8.5): 0.16 ± 0.05 min⁻¹
- Fractfast ([4]; pH 9.5): 0.73 ± 0.05
- kfast ([4]; pH 9.5): 2.27 ± 0.25 min⁻¹
- kslow ([4]; pH 9.5): 0.33 ± 0.07 min⁻¹
- time of initial binding to reach equilibrium [5]: ~ 10 min
